The list shows a part of the results, in another mix than the full data. Activity calls are given as the source filed them.
Columns and labels:
[1] = small-molecule microarray binders of probe aWnt5a, primary screen, biochemical, biotinylated probe, 635/667 nm fluorescence (AID 1113); settings: higher = more signal;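 note: score merges 667 nm fluorescence intensity with signal-to-noise per printed feature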
[2] = small-molecule microarray binders of probe aShh, primary screen, biochemical, biotinylated probe, 635/667 nm fluorescence (AID 1114); settings: higher = more signal;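 note: probe is biotin-labelled aShh protein from a stem cell growth factor screen; measures binding of labelled protein to compounds printed on the slide; score merges feature fluorescence at 667 nm with signal-to-noise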
[3] = small-molecule microarray binders of probe aNog, primary screen, biochemical, biotinylated probe, 635/667 nm fluorescence (AID 1115); settings: higher = more signal;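 note: probe is biotinylated aNog protein used at 0.15 µg/mL for 1 h at 4 C; z-score combines 667 nm fluorescence of each spot with its signal to noise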
[4] = target: Torsin-1A-interacting protein 1 (Homo sapiens) (UniProt Q5JTV8); assay: LAP1 binders from COS7 cell lysate, primary screen, small-molecule microarray, 635/667 nm fluorescence (AID 1116); settings: COS7-hLAP1 lysate binding, 635 nm fluorescence, higher = more signal
Albumin (Bos taurus) = Albumin (Bos taurus) (UniProt P02769); assay: bovine serum albumin binders on microarray, profiling panel, artefact control for SMM control protein annotation, biochemical, small-molecule microarray, Alexa647 label, 635/667 nm fluorescence (AID 1118); settings: BSA-A647 binding, fluorescence 635 nm, higher = more signal;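 note: score merges 667 nm emission intensity and signal-to-noise per printed compound spot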
[5] = small-molecule microarray binders of probe aXIP, primary screen, biochemical, NeuroSMM set, 635/667 nm fluorescence (AID 1119); settings: higher = more signal, called active from +8 up or from −8 down;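 note: probe is the protein aXip251-270 applied at 1 µg/mL to compound-printed slides; binding of probe to printed compounds measured as 667 nm fluorescence plus signal to noise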
[6] = small-molecule binders of probe aNOTCH3, primary screen, biochemical, small-molecule microarray, 635/667 nm fluorescence (AID 1120); settings: higher = more signal;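 note: probe is a biotin-tagged antibody raised against NOTCH3 rather than NOTCH3 protein; score merges spot fluorescence near 667 nm with spot signal to noise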
[7] = small-molecule binders of probe aNOTCH2, primary screen, biochemical, small-molecule microarray, 635/667 nm fluorescence (AID 1121); settings: higher = more signal;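 note: score merges feature fluorescence read at 667 nm with its signal to noise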
[8] = target: Carbonic anhydrase 2 (Homo sapiens) (UniProt P00918); assay: CAII small-molecule binders, profiling panel, biochemical, small-molecule microarray, Alexa647-labelled CAII (AID 1122); settings: CAII-A647 binding fluorescence, higher = more signal
[9] = COS7 lysate on small-molecule microarray, probe aHis, 635 nm (AID 1123); settings: COS7 cell lysate, fluorescence, higher = more signal;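 note: z-score combines 667nm fluorescence intensity with signal-to-noise per printed compound spot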

By UniProt entry, the sequences of proteins in these tests, tags left out. Where a name states a change or a piece, a line headed by the entry shows the natural chain unless it says otherwise.
UniProt Q5JTV8: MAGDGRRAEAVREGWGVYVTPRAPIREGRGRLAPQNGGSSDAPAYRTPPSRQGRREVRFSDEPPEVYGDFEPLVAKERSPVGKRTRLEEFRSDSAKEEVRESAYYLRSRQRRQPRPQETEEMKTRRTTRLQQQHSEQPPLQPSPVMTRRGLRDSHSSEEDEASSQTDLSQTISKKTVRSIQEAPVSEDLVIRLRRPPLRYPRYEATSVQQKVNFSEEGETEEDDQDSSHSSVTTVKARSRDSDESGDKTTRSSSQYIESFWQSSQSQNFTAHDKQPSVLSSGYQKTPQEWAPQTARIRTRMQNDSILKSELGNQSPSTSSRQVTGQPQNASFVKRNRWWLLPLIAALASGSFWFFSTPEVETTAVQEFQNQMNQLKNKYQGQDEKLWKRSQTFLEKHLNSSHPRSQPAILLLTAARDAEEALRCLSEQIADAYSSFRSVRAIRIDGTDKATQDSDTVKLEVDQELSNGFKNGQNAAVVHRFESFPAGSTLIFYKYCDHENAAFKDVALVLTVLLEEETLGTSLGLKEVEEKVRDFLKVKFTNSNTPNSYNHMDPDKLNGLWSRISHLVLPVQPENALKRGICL
UniProt P02769, whole entry, looked up: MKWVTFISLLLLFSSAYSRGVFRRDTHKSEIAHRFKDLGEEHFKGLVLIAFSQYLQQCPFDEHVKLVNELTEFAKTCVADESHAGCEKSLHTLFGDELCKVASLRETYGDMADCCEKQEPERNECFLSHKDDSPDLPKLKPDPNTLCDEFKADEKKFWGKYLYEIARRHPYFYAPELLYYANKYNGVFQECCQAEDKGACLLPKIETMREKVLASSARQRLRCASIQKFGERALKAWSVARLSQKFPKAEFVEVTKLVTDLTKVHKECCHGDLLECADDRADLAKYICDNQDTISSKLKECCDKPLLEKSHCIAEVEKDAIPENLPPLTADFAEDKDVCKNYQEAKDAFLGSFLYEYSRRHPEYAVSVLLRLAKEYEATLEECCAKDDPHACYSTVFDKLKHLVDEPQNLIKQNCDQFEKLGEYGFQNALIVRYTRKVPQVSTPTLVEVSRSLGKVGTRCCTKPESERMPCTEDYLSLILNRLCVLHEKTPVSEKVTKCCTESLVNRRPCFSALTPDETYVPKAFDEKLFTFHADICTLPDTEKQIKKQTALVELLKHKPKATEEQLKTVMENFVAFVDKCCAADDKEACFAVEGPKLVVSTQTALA

Row | SMILES | composite z-score [1] | composite z-score [2] | composite z-score [3] | composite z-score [4] | composite z-score (Albumin (Bos taurus)) | composite Z-score [5] | composite z-score [6] | composite z-score [7] | composite z-score [8] | composite z-score [9]
1 | CN1/C(=N\P(=O)(Oc2ccccc2)Oc2ccccc2)CC(c2ccc(CO)cc2)=CC1C1CC1 (stereo not given) | -0.101 | -0.515 | 0.728 | 0.197 | 1.02 | inactive: -0.0905 | 0.129 | -0.0535 | 0.882 | 2.74
2 | O=P(/N=C1/CC(CCCO)=CC(C2CC2)N1Cc1cc2c(cc1Br)OCO2)(Oc1ccccc1)Oc1ccccc1 (stereo not given) | 0.0324 | -0.154 | 0.869 | 1.57 | 1.1 | inactive: 0.38 | 0.0425 | -0.02 | 0.87 | 2.09
3 | COP(=O)(/N=C1/CC(c2ccc(CO)cc2)=CC(C2CC2)N1Cc1sc2ccccc2c1Cl)OC (stereo not given) | 0.436 | 0.508 | 1.63 | 1.72 | 0.781 | inactive: 0.121 | 0.802 | 0.303 | 0.792 | 1.29
4 | COP(=O)(/N=C1/CC(CCCO)=CC(C)N1Cc1cccc(OC(F)(F)F)c1)OC (stereo not given) | -0.0192 | 0.358 | 1.27 | 2.14 | 0.688 | inactive: 1.05 | 0.0026 | 0.0768 | 0.785 | 1.27
5 | O=P(/N=C1/CC(CCCO)=CC(c2ccc(CN3CCCC3)cc2)N1Cc1cc2c(cc1Br)OCO2)(Oc1ccccc1)Oc1ccccc1 (stereo not given) | -0.0887 | -0.366 | 1.04 | 0.982 | 0.231 | inactive: 0.0707 | -0.0984 | 0.0022 | 0.909 | 1.32
6 | CN1/C(=N\P(=O)(Oc2ccccc2)Oc2ccccc2)CC(CCCO)=CC1c1cccs1 (stereo not given) | -0.0346 | 0.289 | 0.644 | 1.64 | 0.993 | inactive: -0.305 | 0.0665 | -0.0811 | 0.846 | 1.54
7 | O=P(/N=C1/CC(CCCO)=CC(c2cccs2)N1Cc1cc2c(cc1Br)OCO2)(Oc1ccccc1)Oc1ccccc1 (stereo not given) | 0.0169 | 0.0684 | 0.672 | 1.25 | 1.02 | inactive: 1.21 | 0.0979 | 0.0028 | 0.462 | 2.69
8 | O=P(/N=C1/CC(CCCO)=CC(C2CC2)N1Cc1cccc(OC(F)(F)F)c1)(Oc1ccccc1)Oc1ccccc1 (stereo not given) | -0.0478 | -0.214 | 0.189 | 1.3 | 0.295 | inactive: -0.199 | -0.0967 | -0.124 | 0.781 | 1.59
9 | O=P(/N=C1/CC(c2ccc(CO)cc2)=CC(c2cccs2)N1Cc1cccc(OC(F)(F)F)c1)(Oc1ccccc1)Oc1ccccc1 (stereo not given) | -0.0735 | -0.138 | 0.595 | 1.14 | 0.957 | inactive: 0.181 | 0.0623 | 0.0268 | 0.781 | 2.76
10 | O=P(/N=C1/CC(CCCO)=CC(c2ccc(CN3CCCC3)cc2)N1Cc1sc2ccccc2c1Cl)(Oc1ccccc1)Oc1ccccc1 (stereo not given) | -0.0192 | 0.0893 | 0.621 | 0.61 | 1.06 | inactive: 0.291 | -0.0567 | 0.0228 | 0.821 | 1.6
11 | COP(=O)(/N=C1/CC(CCCO)=CC(c2cccs2)N1C)OC (stereo not given) | 0.312 | 0.104 | -0.0121 | 1.48 | 0.442 | inactive: 0.309 | 0.366 | 0.329 | 0.47 | 0.93
12 | COP(=O)(/N=C1/CC(c2ccc(CO)cc2)=CC(c2cccs2)N1C)OC (stereo not given) | 0.15 | 0.464 | 1.14 | 0.522 | 0.413 | inactive: 0.142 | 0.333 | 0.128 | 0.732 | -0.0512
13 | COP(=O)(/N=C1/CC(c2ccc(CO)cc2)=CC(C2CC2)N1Cc1cc2c(cc1Br)OCO2)OC (stereo not given) | 0.0516 | 0.564 | 1.25 | 1.92 | 0.124 | inactive: 1.11 | 0.26 | 0.114 | 0.789 | 0.163
14 | O=P(/N=C1/CC(CCCO)=CC(C2CC2)N1Cc1sc2ccccc2c1Cl)(Oc1ccccc1)Oc1ccccc1 (stereo not given) | 0.0167 | -0.0596 | 0.776 | 2.59 | 0.927 | inactive: 0.221 | -0.294 | -0.0064 | 0.788 | 1.98
15 | CN1/C(=N\P(=O)(Oc2ccccc2)Oc2ccccc2)CC(CCCO)=CC1C1CC1 (stereo not given) | 0.0709 | 0.232 | 0.755 | 2.33 | 0.937 | inactive: 0.952 | 0.281 | -0.107 | 0.927 | 1.8
16 | O=P(/N=C1/CC(c2ccc(CO)cc2)=CC(C2CC2)N1Cc1sc2ccccc2c1Cl)(Oc1ccccc1)Oc1ccccc1 (stereo not given) | -0.0239 | 0.123 | -0.103 | 0.428 | 0.144 | inactive: 0.392 | -0.004 | -0.084 | 0.798 | 1.73
17 | COP(=O)(/N=C1/CC(CCCO)=CC(C2CC2)N1Cc1sc2ccccc2c1Cl)OC (stereo not given) | 0.48 | 1.24 | 1.83 | 2.6 | 0.133 | inactive: 0.295 | 0.762 | 0.354 | 0.732 | 1.16
18 | COP(=O)(/N=C1/CC(CCCO)=CC(c2ccc(CN3CCCC3)cc2)N1Cc1sc2ccccc2c1Cl)OC (stereo not given) | 0.187 | 0.976 | 1.43 | 2.15 | 0.86 | inactive: 0.797 | 0.764 | 0.243 | 0.608 | 0.361
19 | COP(=O)(/N=C1/CC(CCCO)=CC(c2ccc(CN3CCCC3)cc2)N1C)OC (stereo not given) | 0.149 | -0.138 | 1.43 | 0.455 | 0.0723 | inactive: 0.0831 | 0.032 | 0.13 | 0.714 | 0.686
20 | COP(=O)(/N=C1/CC(CCCO)=CC(c2ccc(CN3CCCC3)cc2)N1Cc1cc2c(cc1Br)OCO2)OC (stereo not given) | 0.0927 | 0.171 | -0.193 | -0.182 | -0.541 | inactive: 0.0792 | 0.601 | 0.306 | 0.901 | 1.03
21 | COP(=O)(/N=C1/CC(CCCO)=CC(C2CC2)N1Cc1cc2c(cc1Br)OCO2)OC (stereo not given) | -0.0346 | 0.337 | 0.638 | 1.24 | 0.283 | inactive: 1.49 | 0.203 | 0.0474 | 0.566 | 1.61
22 | COP(=O)(/N=C1/CC(CCCO)=CC(C2CC2)N1Cc1cccc(OC(F)(F)F)c1)OC (stereo not given) | -0.101 | 0.261 | 0.669 | 1.98 | 0.708 | inactive: 0.251 | 0.186 | 0.0175 | 0.541 | 0.74
23 | COP(=O)(/N=C1/CC(CCCO)=CC(c2ccc(CN3CCCC3)cc2)N1Cc1cccc(OC(F)(F)F)c1)OC (stereo not given) | 0.0438 | 0.665 | 1.36 | 1.42 | 0.217 | inactive: -0.391 | -0.0707 | 0.0092 | 0.745 | 0.791
24 | COP(=O)(/N=C1/CC(c2ccc(CO)cc2)=CC(C2CC2)N1C)OC (stereo not given) | -0.0607 | 0.0611 | -0.207 | 0.254 | 0.479 | inactive: 0.324 | 0.485 | -0.039 | 0.818 | 0.435
25 | O=P(/N=C1/CC(c2ccc(CO)cc2)=CC(C2CC2)N1Cc1cc2c(cc1Br)OCO2)(Oc1ccccc1)Oc1ccccc1 (stereo not given) | 0.0077 | 0.385 | -0.0381 | 1.82 | 0.604 | inactive: 2.15 | -0.0003 | -0.142 | 0.381 | 2.53
26 | CC1C=C(CCCO)C/C(=N/P(=O)(Oc2ccccc2)Oc2ccccc2)N1Cc1cccc(OC(F)(F)F)c1 (stereo not given) | -0.0203 | 0.0639 | 0.422 | 1 | 0.803 | inactive: 0.586 | 0.0257 | -0.0859 | 0.503 | 1.97
27 | COP(=O)(/N=C1/CC(CCCO)=CC(C2CC2)N1C)OC (stereo not given) | 0.121 | -0.214 | -0.226 | 0.325 | 0.43 | inactive: -0.21 | 0.0945 | -0.164 | 0.16 | 0.484
28 | O=P(/N=C1/CC(CCCO)=CC(c2cccs2)N1Cc1cccc(OC(F)(F)F)c1)(Oc1ccccc1)Oc1ccccc1 (stereo not given) | -0.0718 | 0.0469 | 1.49 | 1.34 | 0.973 | inactive: 2.87 | -0.0378 | -0.0787 | 0.48 | 1.23
29 | CN1/C(=N\P(=O)(Oc2ccccc2)Oc2ccccc2)CC(c2ccc(CO)cc2)=CC1c1cccs1 (stereo not given) | 0.0101 | -0.297 | 0.82 | 2.11 | 0.717 | inactive: 0.528 | 0.0744 | -0.118 | 0.923 | 1.86
30 | CN1/C(=N\P(=O)(Oc2ccccc2)Oc2ccccc2)CC(CCCO)=CC1c1ccc(CN2CCCC2)cc1 (stereo not given) | -0.0371 | 0.0278 | 0.201 | 0.748 | 0.916 | inactive: 0.0063 | 0.132 | 0.0521 | 0.859 | 0.695
